# Assay results reported in ChEMBL document CHEMBL4609972, “Histone deacetylase 8 (HDAC8) and its inhibitors with selectivity to other isoforms: An overview” (Eur J Med Chem, 2019).
# Target: T1, Histone deacetylase 8 (Homo sapiens, UniProt Q9BY41)
# T1 sequence (Q9BY41 whole entry): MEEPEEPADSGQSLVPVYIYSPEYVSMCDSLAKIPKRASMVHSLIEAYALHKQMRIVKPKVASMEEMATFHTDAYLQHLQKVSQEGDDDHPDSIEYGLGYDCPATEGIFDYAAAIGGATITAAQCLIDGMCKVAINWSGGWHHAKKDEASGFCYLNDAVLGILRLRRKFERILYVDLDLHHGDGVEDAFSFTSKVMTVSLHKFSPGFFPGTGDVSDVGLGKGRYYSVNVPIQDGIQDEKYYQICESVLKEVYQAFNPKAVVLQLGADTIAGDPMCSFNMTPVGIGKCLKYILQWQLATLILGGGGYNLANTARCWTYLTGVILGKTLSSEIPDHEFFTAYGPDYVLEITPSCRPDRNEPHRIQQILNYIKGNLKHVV
# Experiment: Inhibition of HDAC8 (unknown origin)
smiles,measurement,value
O=C(CCCCCCC(=O)Nc1ccccc1)NO [VORINOSTAT],IC50,370 nM
